# This is a selection; strong and weak results do not stand in their true shares. Some of these compounds have results that are not shown, active ones among them. Results filed as inconclusive are left out. The source made the active and inactive calls. Calls follow the shape of the dose curve; as a rule, active = well fitted cell-killing curve with a large enough effect; inconclusive = small, poorly fitted or top-dose-only effect; inactive = no such curve, though single readings can be large or run the other way.
# Assay: qHTS Screen for Compounds that Selectively Target Cancer Cells with p53 Mutations: Cytotoxicity of p53ts Cells at the Nonpermissive Temperature; also: nearly all actives have a fitted effect of over 55% in size
# Settings: H1299-p53A138V viability at 39C, ATP luminescence, 24 h; at 46.1 µM (top of the series) unless noted
# % is scaled to controls: 0 for no effect and ±100 for the full control effect.
row,Structure (SMILES),"activity change, negative = cell killing"
1,CN(C)C1(CNC(=O)c2cccc(Cl)c2)CCCCC1,inactive: 28.5%
2,CN(C)C1(CNC(=O)c2ccccc2F)CCCCC1,inactive: 8%
3,CN(C)C1CCCC1OC(=O)C(O)(c1ccccc1)c1ccccc1 (configuration not stated),inactive: 13.7%
4,CN(C)C1(CNC(=O)c2ccccc2[N+](=O)[O-])CCCCC1,inactive: -2.85%
5,CCCCOc1ccccc1C(=O)NCC1(N(C)C)CCCCC1,inactive: 14.9%
6,CCOc1cccc(C(=O)NCC2(N(C)C)CCCCC2)c1,inactive: 36.7%
7,COc1ccc(C(=O)NCC2(N(C)C)CCCCC2)cc1Cl,inactive: -3.91%
8,CN1CC[C@H](OC(=O)[C@](O)(c2ccccc2)C2CCCC2)C1,inactive: 9.44% [at 9.22 µM]
9,O=C(OC1CN2CCC1CC2)C(CO)(c1ccccc1)c1ccccc1 (configuration not stated),inactive: 0.946%
10,CN1CCC[C@H](OC(=O)[C@](O)(c2ccccc2)C2CCCC2)C1,inactive: 11.9% [at 9.22 µM]
11,COc1cccc(C(=O)NCC2(N3CCOCC3)CCCCC2)c1,inactive: -6.73%
12,C=C(C)C#C[C@@](O)(C(=O)OC1CCN(C)CC1)c1ccccc1,inactive: 6.98% [at 9.22 µM]
13,CC(C)COc1ccc(C(=O)NCC2(N(C)C)CCCCC2)cc1,inactive: 11%
14,Cc1cccc(C(=O)NCC2(N(C)C)CCCCC2)c1,inactive: 13.2%
15,COc1cc(C(=O)NCC2(N(C)C)CCCCC2)cc(OC)c1OC,inactive: 34.4%
16,CN(C)c1cccc(C(=O)NCC2(N(C)C)CCCCC2)c1,inactive: 4.73%
17,CC(C)Oc1ccc(C(=O)NCC2(N(C)C)CCCCC2)cc1,inactive: -1.14%

# Source: PubChem BioAssay AID902 (National Center for Advancing Translational Sciences (NCATS), 2007)
